Measured values taken from the SangsterLogP compilation.

logP: 0.64
SMILES: O=C(O)C(O)c1ccccc1 (stereo unspecified)
